# Apparent affinities of Ab-91 variants for a coronavirus HR2 peptide

All variants were tested on one target, the spike HR2 peptide PDVDLGDISGINAS (SARS-CoV-2).

The variants keep the light chain, the linker and the frameworks of Ab-91 (scFv order VL, three GGGGS repeats, VH).
VL: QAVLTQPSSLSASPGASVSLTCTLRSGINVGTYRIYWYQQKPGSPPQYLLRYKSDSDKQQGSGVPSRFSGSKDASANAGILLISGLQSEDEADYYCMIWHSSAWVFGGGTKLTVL
VH: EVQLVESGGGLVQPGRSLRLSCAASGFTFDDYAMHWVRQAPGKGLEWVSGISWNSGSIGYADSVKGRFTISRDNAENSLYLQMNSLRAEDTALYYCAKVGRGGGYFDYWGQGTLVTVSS

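The starting antibody came from a phage panning campaign against this peptide. Library AAYL51 holds single substitutions and randomly drawn double and triple substitutions in the CDRs. The assay is AlphaSeq: two haploid yeast populations carry antibody and antigen on their surface. Binding brings cells together so that they mate, and sequencing counts the barcode pairs among the diploids. The ratio of observed to expected reads was calibrated, replicate by replicate, on BCL2-family standards whose Kd was known from biolayer interferometry. There are three technical replicates.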

Each variant is given by its three heavy chain CDRs, as the data file delimits them; those of the parent are GFTFDDYAMH, GISWNSGSIGYADSVK, VGRGGGYFDY. This list gathers variants with a substitution at G50 (VH, numbered from residue 1). Each Kd is an estimate from the mating assay, the geometric mean of the replicates in which the pair was seen; lower is stronger. A pair that was not seen in any replicate is written "no signal"; this usually means weak binding, but a binder can also be missed. Entries are sorted by rising average, undetected variants last.

Variant GFTFDDYAMH / RISWNSGQIGYADSVK / VGRGGSYFDY showed 1.5 µM (1 of 3 replicates). Variant GFTFDPYAMH / QISWNSGSIGYADSNK / VGRGGGYFDY gave 3.8 µM (1 of 3 replicates). With GFTFDDYAMH / LISWNSGSIGYADSSK / VGRGGGYFVY the result was 5.2 µM (1 of 3 replicates). Variant GFTFHDYAMH / YDSWNSGSIGYADSVK / VGRGGGYFDY gave 6.1 µM (1 of 3 replicates). Variant TFTFDDYAMH / RISWNSGSIGYAESVK / VGRGGGYFDY showed 7.5 µM (1 of 3 replicates). For GFTFDDYAMH / DISRNSGSIGYADSVK / VGRGGGYTDY, the assay gave 9.9 µM (1 of 3 replicates). For YFTFDDYAMH / SISWNSGSIGYADSVK / VGRGGGYFDY, the assay gave 18 µM (2 of 3 replicates). With GFTFDDYAMH / TISWNQGSIDYADSVK / VGRGGGYFDY the result was 19 µM (2 of 3 replicates). For GFTFDDYAMH / LISWNSGPIGYADSVK / VERGGGYFDY, the assay gave 27 µM (2 of 3 replicates).

With GFTFDDWAMY / RISWNSGSIGYADSVK / VGRGGGYFDY the result was 32 µM (1 of 3 replicates). Variant GFTFDDWHMH / KISWNSGSIGYADSVK / VGRGGGYFDY gave 44 µM (1 of 3 replicates). Variant GFTGDDYAMH / TIWWNSGSIGYADSVK / VGRGGGYFDY gave 52 µM (2 of 3 replicates). Variant GFTPDDYAMW / VISWNSGSIGYADSVK / VGRGGGYFDY showed 66 µM (1 of 3 replicates). For GFTFDDYAMH / RISWNSGSIGYADSVK / VGLGGGYFDY, the assay gave 71 µM (2 of 3 replicates). Variant GFQFDDYAMH / EQSWNSGSIGYADSVK / VGRGGGYFDY showed 98 µM (1 of 3 replicates). Variant GFTFDDYAMH / LLSWNSGSIGYADSVK / VGRGGGYFDY showed 140 µM (3 of 3 replicates). For GFTFRHYAMH / DISWNSGSIGYADSVK / VGRGGGYFDY, the assay gave 180 µM (1 of 3 replicates). Variant GFTFDDYAMH / TISWNSGSTGYADSWK / VGRGGGYFDY showed 180 µM (1 of 3 replicates).

With GFTFDDYAMH / MISWNSGSIGYADSVK / VSRGGGYNDY the result was 370 µM (2 of 3 replicates). With EFTFDDYAMH / IISWNSGSIGYADSVN / VGRGGGYFDY the result was 880 µM (1 of 3 replicates). For GCTFDDYAMH / PISWPSGSIGYADSVK / VGRGGGYFDY, the assay gave no signal (0 of 3 replicates). Variant GFTFMDYAMH / MISWNSGSIGYADSVK / VGRGGGTFDY showed no signal (0 of 3 replicates). Variant GFTFDDYAMH / KISWNSGSIGYADSVK / VVRGGGSFDY gave no signal (0 of 3 replicates). Variant GFTFCDYAMH / LISWNSGSIGYADSVK / VGRGGGYFDD gave no signal (0 of 3 replicates). Variant GFTFDDYAMH / TISWNSGSIGYAFSVK / VGRHGGYFDY gave no signal (0 of 3 replicates). With GFWFDDYQMH / YISWNSGSIGYADSVK / VGRGGGYFDY the result was no signal (0 of 3 replicates). For GFTHDDYAMH / SISWNSGSIGYADSVK / VGRGGGYFDV, the assay gave no signal (0 of 3 replicates).

Variant GFTFDDYAMH / FISWNSFSIGYADSVK / VGRGGGVFDY gave no signal (0 of 3 replicates). With GFTFDDDAMC / FISWNSGSIGYADSVK / VGRGGGYFDY the result was no signal (0 of 3 replicates). Variant GFTFDDYAMH / HISWNSGSIGYEDSYK / VGRGGGYFDY gave no signal (0 of 3 replicates). Variant GFTFDDYAMH / AISWWSGSIGYADSVK / YGRGGGYFDY showed no signal (0 of 3 replicates). With GFTFDDYAMH / EIRWNSPSIGYADSVK / VGRGGGYFDY the result was no signal (0 of 3 replicates). With GFTFDSYAMH / QISWNSHSIGYADSVK / VGRGGGYFDY the result was no signal (0 of 3 replicates). Variant GFTFDDYAMH / EISWNSGSIGYEDSVK / VGRGGRYFDY gave no signal (0 of 3 replicates). Variant GFTFDDYAMH / LISWNSLSIGYADSVK / VGRGGGYFDY gave no signal (0 of 3 replicates). For GFTFDDYAMP / PASWNSGSIGYADSVK / VGRGGGYFDY, the assay gave no signal (0 of 3 replicates).

Variant GFTFDDYAMH / LISWNSGSIGYADSVK / CGRGGGYFRY showed no signal (0 of 3 replicates). Variant GFTFDDWAMH / YIPWNSGSIGYADSVK / VGRGGGYFDY gave no signal (0 of 3 replicates). For GFTFDDYAMH / CISWNSGSIGYADSVM / VGRGGDYFDY, the assay gave no signal (0 of 3 replicates). Variant GFTFDDYFMH / FISWFSGSIGYADSVK / VGRGGGYFDY showed no signal (0 of 3 replicates).

Excerpt, the first 4 entries:

For GFTFDDYAMH / RISWNSGQIGYADSVK / VGRGGSYFDY, the assay gave 1.5 µM (1 of 3 replicates).
For GFTFDPYAMH / QISWNSGSIGYADSNK / VGRGGGYFDY, the assay gave 3.8 µM (1 of 3 replicates).
For GFTFDDYAMH / LISWNSGSIGYADSSK / VGRGGGYFVY, the assay gave 5.2 µM (1 of 3 replicates).
For GFTFHDYAMH / YDSWNSGSIGYADSVK / VGRGGGYFDY, the assay gave 6.1 µM (1 of 3 replicates).

Parent in this assay: reference entry 72 nM, copy in this library 7.5 nM. Background: pairings of library AAYL51 with three empty control strains gave a value in 21% of cases (median 34 µM, 5th percentile 1.8 µM). Values in that range, when seen in few replicates, are hard to tell from nonspecific mating.

Values reported by Engelhart et al. 2022, doi:10.1038/s41597-022-01779-4 (FLAb copy).